## OPERA 2.9 data: water solubility values

From the experimental data distributed with OPERA 2.9.

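These are experimental values that the OPERA curators gathered from public databases to train and test their QSAR models. The files give a single number for a compound and property, which may rest on several reports. Method, purity and exact conditions of the single measurements are not given. Where a salt, mixture or single isomer is drawn, the source does not say that exactly this form was tested. Some upstream entries may be estimates or bounds without being marked so.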

Water solubility is log10 of mol/L, nominally at 25 °C; higher is more soluble.

Listed for C[C@]12CCC3C(CC[C@]4(O[C@@H]5OC(CO)[C@@H](O)C(O)C5O)C=CCC[C@]34C=O)[C@@]1(O)CC[C@@H]2c1ccc(=O)oc1 (stereo not given in full): log S -2.226 (log10 mol/L).
Listed for O=S(=O)(c1ccccc1)c1ccccc1 [Diphenylsulfone]: log S -4.193 (log10 mol/L).
Listed for COc1ccc(Cc2nccc3cc(OC)c(OC)cc23)cc1OC [Papaverine]: log S -3.87 (log10 mol/L).
Listed for CCSC(C)CC1CC(=O)C(/C(CC)=N/OC/C=C/Cl)=C(O)C1 (stereo partly drawn) [Clethodim]: log S -1.821 (log10 mol/L).
Listed for CCOP(=S)(OCC)Oc1ccc(SC)cc1: log S -4.889 (log10 mol/L).
Listed for Cc1cc([NH3+])ccc1[NH3+].O=S(=O)([O-])[O-] [2,5-Diaminotoluene sulfate]: log S -1.492 (log10 mol/L).
Listed for CCN[C@@H](C)Cc1cccc(C(F)(F)F)c1 [Dexfenfluramine]: log S -4.032 (log10 mol/L).
Listed for C=CCN1CC[C@]23c4c5ccc(O)c4O[C@H]2C(=O)CC[C@@]3(O)[C@H]1C5 [Naloxone]: log S -1.764 (log10 mol/L).
Listed for C[C@@]1(OO)NC(=O)N[C@H]1O (stereo in doubt) [(4S,5S)-4-Hydroperoxy-5-hydroxy-4-methylimidazolidin-2-one]: log S -0.597 (log10 mol/L).
Listed for NC(=S)C(N)=S [Dithiooxamide]: log S -2.513 (log10 mol/L).
Listed for O=C(CCCN1CCC(n2c(=O)[nH]c3ccccc32)CC1)c1ccc(F)cc1 [Benperidol]: log S -4.28 (log10 mol/L).
Listed for FC(F)=C(F)C(F)(F)F [Hexafluoropropene]: log S -2.889 (log10 mol/L).
Listed for BrCCCCCCBr [1,6-Dibromohexane]: log S -3.813 (log10 mol/L).
Listed for CC(=O)Oc1ccc(C#N)cc1 [Benzonitrile, 4-(acetyloxy)-]: log S -1.799 (log10 mol/L).
Listed for O=[N+]([O-])c1ccc(Cl)c([N+](=O)[O-])c1 [1-Chloro-2,4-dinitrobenzene]: log S -4.403 (log10 mol/L).
Listed for CCC(=O)Nc1ccccc1 [N-Phenylpropanamide]: log S -1.92 (log10 mol/L).
Listed for FC(F)C(F)(F)OCC(Cn1cncn1)c1ccc(Cl)cc1Cl (configuration not stated): log S -3.38 (log10 mol/L).
Listed for CC(=O)C=Cc1ccccc1 [Methyl styryl ketone]: log S -2.043 (log10 mol/L).
Listed for c1ccc(Nc2ccc(Nc3ccccc3)cc2)cc1 [N,N'-Diphenyl-p-phenylenediamine]: log S -6.239 (log10 mol/L).
Listed for O=S(=O)([O-])C(F)(F)C(F)(F)C(F)(F)C(F)(F)C(F)(F)C(F)(F)C(F)(F)C(F)(F)F.[Li+] [Lithium perfluorooctanesulfonate]: log S -2.959 (log10 mol/L).
Listed for c1ccc2nc3ccc4ccccc4c3cc2c1 [Benz[a]acridine]: log S -5.81 (log10 mol/L).
Listed for Clc1nc(Cl)nc(Cl)n1 [2,4,6-Trichloro-s-triazine]: log S -2.737 (log10 mol/L).
Listed for FC(F)C(F)(F)OCC(F)(F)F [(1H,1H-Perfluoroethyl)(2H-perfluoroethyl)ether]: log S -3.26 (log10 mol/L).
Listed for FC(F)Br [Bromodifluoromethane]: log S 0.582 (log10 mol/L).
Listed for C[C@H]1CCCC=C[C@@H]2C[C@H](O)C[C@H]2[C@H](O)C=CC(=O)O1 [Brefeldin A]: log S -5.67 (log10 mol/L).
Listed for O=C1CN=C(c2ccccn2)c2cc(Br)ccc2N1 [Bromazepam]: log S -3.48 (log10 mol/L).
Listed for CC(=O)c1cc2c(cc1C)C(C)(C)C(C)C2C(C)C (configuration not stated): log S -5.681 (log10 mol/L).
Listed for Cc1cc(N=Nc2ccccc2C)ccc1N [2-Amino-5-azotoluene]: log S -4.51 (log10 mol/L).
Listed for CC1=CC(=O)c2c(O)cccc2C1=O [1,4-Naphthalenedione, 5-hydroxy-2-methyl-]: log S -2.797 (log10 mol/L).
Listed for CC(C)(C)OOC(=O)/C=C\C(=O)O [(2Z)-1-(1,1-Dimethylethyl) 3-carboxy-2-propeneperoxoate]: log S -2.64 (log10 mol/L).
Listed for CCCCCCCCCc1ccc(OP(=O)(Oc2ccccc2)Oc2ccccc2)cc1 [4-Nonylphenyl diphenyl phosphate]: log S -5.77 (log10 mol/L).
Listed for O=C(CCl)Nc1ccccc1 [2-Chloro-N-phenylacetamide]: log S -1.83 (log10 mol/L).
Listed for O=S(=O)([O-])C(F)(F)C(F)(F)C(F)(F)C(F)(F)C(F)(F)C(F)(F)C(F)(F)C(F)(F)F.[K+] [Potassium perfluorooctanesulfonate]: log S -3.361 (log10 mol/L).
Listed for O=c1cccc2n1C[C@@H]1CNC[C@H]2C1: log S 0.36 (log10 mol/L).
Listed for O=C([O-])C(Cl)(Cl)Cl.[Na+] [Sodium trichloroacetate]: log S -0.189 (log10 mol/L).
Listed for Cc1c([N+](=O)[O-])cc(N)cc1[N+](=O)[O-] [4-Amino-2,6-dinitrotoluene]: log S -2.2 (log10 mol/L).
Listed for O=[N+]([O-])Nc1ccccc1 [N-Nitroaniline]: log S -2 (log10 mol/L).
Listed for NC(=O)Nc1cccc(C(F)(F)F)c1 [[3-(Trifluoromethyl)phenyl]urea]: log S -2.66 (log10 mol/L).
Listed for CCc1cc(Cc2cc(CC)c(N)c(CC)c2Cl)c(Cl)c(CC)c1N [Benzenamine, 4,4'-methylenebis[3-chloro-2,6-diethyl-]: log S -7.278 (log10 mol/L).
Listed for COc1ccccc1OC [1,2-Dimethoxybenzene]: log S -1.445 (log10 mol/L).
Listed for O=Nc1ccccc1 [Nitrosobenzene]: log S -1.699 (log10 mol/L).
Listed for NC(=O)O[C@@H](Cn1ncnn1)c1ccccc1Cl [Cenobamate]: log S -2.197 (log10 mol/L).
Listed for C/C=C\[C@@H]1[C@@H](C(=O)OCc2c(F)c(F)c(COC)c(F)c2F)C1(C)C [Metofluthrin]: log S -5.73 (log10 mol/L).
Listed for S=C=Nc1ccc(Br)cc1 [4-Bromophenylisothiocyanate]: log S -0.268 (log10 mol/L).
Listed for CN(C)C(=O)Nc1cccc(OC(=O)NC(C)(C)C)c1 [Karbutilate]: log S -2.931 (log10 mol/L).
Listed for CC(=O)Nc1ccc(Cl)cc1 [4-Chloroacetanilide]: log S -2.84 (log10 mol/L).
Listed for Cc1ccc(CCN)cc1 [p-Methylphenethylamine]: log S -0.745 (log10 mol/L).
Listed for CCNCC(O)c1cccc(O)c1 (configuration not stated) [Etilefrine]: log S -3.454 (log10 mol/L).

Extract of 3 entries:

{"smiles": "CCN[C@@H](C)Cc1cccc(C(F)(F)F)c1", "name": "Dexfenfluramine", "log S (log10 mol/L)": "-4.032"}
{"smiles": "CCCCCCCCCc1ccc(OP(=O)(Oc2ccccc2)Oc2ccccc2)cc1", "name": "4-Nonylphenyl diphenyl phosphate", "log S (log10 mol/L)": "-5.77"}
{"smiles": "O=S(=O)(c1ccccc1)c1ccccc1", "name": "Diphenylsulfone", "log S (log10 mol/L)": "-4.193"}